Assay results reported in patent US20110207628A1.

Sequences of proteins named here, by UniProt entry; tags and fusion partners are left off. Residues count along the entry.
UniProt P50586, 1-242: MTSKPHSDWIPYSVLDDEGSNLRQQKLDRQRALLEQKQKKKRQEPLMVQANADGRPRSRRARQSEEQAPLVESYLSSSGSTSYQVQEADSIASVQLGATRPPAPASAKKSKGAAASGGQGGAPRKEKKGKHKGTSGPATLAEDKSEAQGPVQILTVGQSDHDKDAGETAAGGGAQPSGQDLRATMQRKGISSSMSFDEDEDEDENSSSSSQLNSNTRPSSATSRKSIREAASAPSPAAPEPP

Target: tubby-N (N-terminus of mouse tubby, 1M-242P), GST-free (mouse) (UniProt P50586)
Test: clonal phage on immobilized tubby-N, plaque assay

## Paf1/RNA polymerase II complex component (Rtf1) 69N-186K, phage clone (from UniProt A2AQ19 69-186)
  Binding to tubby-N (binding specificity of clonal phage vs. control phage): 6.4 X (fold)
